Results reported in paper PMC8217266 (Clinical Pharmacology and Therapeutics, 2021).

Test system: transporters at major organ sites
Assay: Prediction of transporter-mediated inhibition / DDI potential
Details: of 11 transporters; FDA criteria

SMILES: COc1cc2c(c(OC)c1OC)-c1ccc(OC)c(=O)cc1[C@@H](NC(C)=O)CC2 [Colchicine]
- No. of transporters at major organ sites inhibited at clinical concentrations: 0
